This passage reports Dmax results from patent US20260193264A1, “BENZOYPARAZINE PYRAZINES AND THEIR USES” (FOGHORN THERAPEUTICS INC., priority 2022, published 2026).

Sequences of proteins named here, by UniProt entry; tags and fusion partners are left off.
UniProt P51532, whole entry: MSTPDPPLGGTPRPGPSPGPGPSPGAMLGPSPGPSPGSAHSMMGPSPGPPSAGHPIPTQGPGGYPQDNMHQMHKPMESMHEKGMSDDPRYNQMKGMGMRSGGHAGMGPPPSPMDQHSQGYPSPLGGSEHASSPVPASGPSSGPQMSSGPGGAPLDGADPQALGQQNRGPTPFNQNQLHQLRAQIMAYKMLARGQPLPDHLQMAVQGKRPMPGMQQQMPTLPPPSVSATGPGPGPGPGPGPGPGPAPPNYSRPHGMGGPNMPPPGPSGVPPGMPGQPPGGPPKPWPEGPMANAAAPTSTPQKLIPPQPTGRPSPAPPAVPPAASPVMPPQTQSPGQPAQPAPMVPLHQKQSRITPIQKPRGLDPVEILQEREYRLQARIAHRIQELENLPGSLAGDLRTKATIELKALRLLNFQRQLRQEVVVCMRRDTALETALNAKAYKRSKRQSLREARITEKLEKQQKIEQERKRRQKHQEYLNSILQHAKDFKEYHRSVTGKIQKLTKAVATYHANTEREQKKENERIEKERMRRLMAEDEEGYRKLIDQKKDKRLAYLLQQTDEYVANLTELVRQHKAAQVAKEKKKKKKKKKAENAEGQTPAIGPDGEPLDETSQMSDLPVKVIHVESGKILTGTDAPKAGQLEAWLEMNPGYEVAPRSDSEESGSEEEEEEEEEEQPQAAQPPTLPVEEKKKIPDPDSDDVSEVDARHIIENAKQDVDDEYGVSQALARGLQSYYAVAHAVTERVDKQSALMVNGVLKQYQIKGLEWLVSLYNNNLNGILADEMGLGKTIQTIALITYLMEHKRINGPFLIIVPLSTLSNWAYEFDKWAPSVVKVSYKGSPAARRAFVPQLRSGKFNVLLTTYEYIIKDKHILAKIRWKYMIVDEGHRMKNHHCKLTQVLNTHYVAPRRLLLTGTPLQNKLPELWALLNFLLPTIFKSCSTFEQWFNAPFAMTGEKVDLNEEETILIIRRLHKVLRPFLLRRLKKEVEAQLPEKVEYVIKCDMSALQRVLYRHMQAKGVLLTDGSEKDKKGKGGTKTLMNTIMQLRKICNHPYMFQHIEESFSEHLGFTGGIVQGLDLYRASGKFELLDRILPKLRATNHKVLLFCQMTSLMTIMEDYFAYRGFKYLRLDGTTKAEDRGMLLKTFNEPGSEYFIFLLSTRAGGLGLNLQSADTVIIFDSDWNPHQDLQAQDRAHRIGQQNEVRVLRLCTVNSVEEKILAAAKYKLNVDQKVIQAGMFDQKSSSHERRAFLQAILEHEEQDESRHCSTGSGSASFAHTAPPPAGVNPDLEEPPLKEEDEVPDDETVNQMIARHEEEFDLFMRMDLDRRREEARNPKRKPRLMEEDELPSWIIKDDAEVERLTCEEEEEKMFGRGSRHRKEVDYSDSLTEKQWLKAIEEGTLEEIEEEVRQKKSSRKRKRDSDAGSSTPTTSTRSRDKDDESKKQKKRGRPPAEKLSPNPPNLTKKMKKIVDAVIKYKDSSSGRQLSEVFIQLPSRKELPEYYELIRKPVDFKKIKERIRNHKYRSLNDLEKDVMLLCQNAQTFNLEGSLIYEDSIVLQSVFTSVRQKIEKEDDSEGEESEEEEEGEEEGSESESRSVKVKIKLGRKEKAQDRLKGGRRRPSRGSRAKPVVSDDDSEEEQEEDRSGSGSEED

Each structure is given as a SMILES string.

The test concerns the target T1, HiBit-BRG1 fusion protein in stable HeLa cell line expressing HiBit-BRG1 and LgBit (Homo sapiens, UniProt P51532).
T1 construct: expressed in transfected cells
The experiment in a line: HiBiT-BRG1 cell-based degradation assay (Nano-Glo HiBiT, 24 h). On the set-up: dose or concentration left out as unconfirmed. To be noted: read-out: BRG1 HiBit Degradation Maximum (%). As for the experimental part:
Procedure: A stable HeLa cell line expressing HiBiT-BRM was generated. On day 0, 5000 cells were seeded in 40 μL of media into each well of 384-well cell culture plates. […] Subsequently plates were incubated for 24 h in a standard tissue culture incubator and equilibrated at room temperature for 15 minutes. Nano-Glo HiBiT Lytic Detection System (Promega N3050) reagent was freshly prepared and 20 ul was added to each well. Upon addition of this LgBit-containing reagent, the HiBiT and LgBiT proteins associate to form the luminescent NanoBiT luciferase. The plates were shaken for 10 minutes at room temperature and the bioluminescence read using an EnVision plate reader (PerkinElmer). For measurement of BRG1 degradation, a stable HeLa cell line expressing HiBit-BRG1 and LgBit was generated. The same protocol as above was then followed. The degradation % was calculated using the following formula: % degradation=100%−100%×(Lumsample−LumLC)/(LumHC−LumLC). DMSO treated cells are employed as High Control (HC) and 2 μM of a known BRM/BRG1 degrader standard treated cells are employed as Low Control (LC).

For the molecule `Cc1ncsc1-c1ccc([C@H](C)NC(=O)[C@@H]2C[C@@H](O)CN2C(=O)[C@@H](c2cc(N3CC4(CN(c5ccc6cc(-c7ccccc7O)nnc6c5)C4)C3)no2)C(C)C)cc1` (single isomer, unassigned) [Compound 51], the Dmax is under 50%.

`Cc1ncsc1-c1ccc([C@H](C)NC(=O)[C@@H]2C[C@@H](O)CN2C(=O)[C@H](C2CC2)n2cc(N3CC4(CN(c5ccc6cc(-c7ccccc7O)nnc6c5)C4)C3)nn2)cc1` (single isomer, unassigned) [Compound 210]: the Dmax was under 50%.
